Biological target: T1, Sterol regulatory element-binding protein 2 (Homo sapiens, UniProt Q12772)
T1 sequence (Q12772 whole entry): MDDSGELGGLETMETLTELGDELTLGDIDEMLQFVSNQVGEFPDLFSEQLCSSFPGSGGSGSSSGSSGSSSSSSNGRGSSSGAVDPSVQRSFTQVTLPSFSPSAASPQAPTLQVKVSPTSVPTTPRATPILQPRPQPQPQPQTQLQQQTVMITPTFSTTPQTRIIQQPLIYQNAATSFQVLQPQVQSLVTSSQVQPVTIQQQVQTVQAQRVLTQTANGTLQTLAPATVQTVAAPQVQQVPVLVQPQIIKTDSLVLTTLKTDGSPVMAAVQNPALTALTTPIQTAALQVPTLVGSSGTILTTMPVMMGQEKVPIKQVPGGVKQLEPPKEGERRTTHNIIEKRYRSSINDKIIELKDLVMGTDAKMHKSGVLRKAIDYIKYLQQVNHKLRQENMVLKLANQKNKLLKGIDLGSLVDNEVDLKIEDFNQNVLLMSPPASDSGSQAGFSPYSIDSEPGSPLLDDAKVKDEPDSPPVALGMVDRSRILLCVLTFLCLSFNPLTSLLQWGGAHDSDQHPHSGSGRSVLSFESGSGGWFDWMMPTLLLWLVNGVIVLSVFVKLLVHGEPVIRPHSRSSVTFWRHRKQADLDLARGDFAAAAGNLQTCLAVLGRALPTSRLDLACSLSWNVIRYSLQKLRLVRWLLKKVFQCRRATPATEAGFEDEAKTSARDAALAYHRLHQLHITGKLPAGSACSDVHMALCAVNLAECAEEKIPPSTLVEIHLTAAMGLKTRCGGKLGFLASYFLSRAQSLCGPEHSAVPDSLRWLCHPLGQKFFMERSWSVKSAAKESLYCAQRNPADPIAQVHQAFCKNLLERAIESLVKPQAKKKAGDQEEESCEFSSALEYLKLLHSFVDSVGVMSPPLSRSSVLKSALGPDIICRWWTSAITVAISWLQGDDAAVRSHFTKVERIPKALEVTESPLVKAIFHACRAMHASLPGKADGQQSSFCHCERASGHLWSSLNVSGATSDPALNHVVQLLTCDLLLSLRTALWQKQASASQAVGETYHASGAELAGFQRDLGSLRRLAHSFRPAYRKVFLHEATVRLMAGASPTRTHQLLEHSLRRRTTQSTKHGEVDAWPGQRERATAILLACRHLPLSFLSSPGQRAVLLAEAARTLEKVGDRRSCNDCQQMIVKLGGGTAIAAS
Experiment: In Vitro Assay-SREBP-2
Description: 10,000 cells/well of the PathHunter U2OS SREBP-2 Nuclear Translocation Cell Line are plated in quadruplicate on 384 well plates in 20 μL of AssayComplete cell plating 5 reagent (CP5-high serum) overnight at 37° C./5% CO2. A dilution series of test compound is added to cells, incubated for 1 hour at 37° C./5% CO2, and U18666A (a known SREBP agonist) is added to a final concentration of 10 μM. The plate is incubated overnight (16 hours) at 37° C./5% CO2. PathHunter Flash detection mix is added to the wells, incubated one hour in the dark, and the plate read on an Envision luminometer.

COCCOC(=O)N1CCN(C(=O)CC[C@@H](C)[C@H]2CC[C@H]3[C@@H]4CC=C5C[C@@H](O)CC[C@]5(C)[C@H]4CC[C@]23C)CC1 [US20230340011, Example 424.]
IC50: ≤ 250 nM
